The IC50 is the concentration that gives 50% inhibition.

By UniProt entry, the sequences of proteins in these tests, tags left out.
UniProt P42336, whole entry H1047R: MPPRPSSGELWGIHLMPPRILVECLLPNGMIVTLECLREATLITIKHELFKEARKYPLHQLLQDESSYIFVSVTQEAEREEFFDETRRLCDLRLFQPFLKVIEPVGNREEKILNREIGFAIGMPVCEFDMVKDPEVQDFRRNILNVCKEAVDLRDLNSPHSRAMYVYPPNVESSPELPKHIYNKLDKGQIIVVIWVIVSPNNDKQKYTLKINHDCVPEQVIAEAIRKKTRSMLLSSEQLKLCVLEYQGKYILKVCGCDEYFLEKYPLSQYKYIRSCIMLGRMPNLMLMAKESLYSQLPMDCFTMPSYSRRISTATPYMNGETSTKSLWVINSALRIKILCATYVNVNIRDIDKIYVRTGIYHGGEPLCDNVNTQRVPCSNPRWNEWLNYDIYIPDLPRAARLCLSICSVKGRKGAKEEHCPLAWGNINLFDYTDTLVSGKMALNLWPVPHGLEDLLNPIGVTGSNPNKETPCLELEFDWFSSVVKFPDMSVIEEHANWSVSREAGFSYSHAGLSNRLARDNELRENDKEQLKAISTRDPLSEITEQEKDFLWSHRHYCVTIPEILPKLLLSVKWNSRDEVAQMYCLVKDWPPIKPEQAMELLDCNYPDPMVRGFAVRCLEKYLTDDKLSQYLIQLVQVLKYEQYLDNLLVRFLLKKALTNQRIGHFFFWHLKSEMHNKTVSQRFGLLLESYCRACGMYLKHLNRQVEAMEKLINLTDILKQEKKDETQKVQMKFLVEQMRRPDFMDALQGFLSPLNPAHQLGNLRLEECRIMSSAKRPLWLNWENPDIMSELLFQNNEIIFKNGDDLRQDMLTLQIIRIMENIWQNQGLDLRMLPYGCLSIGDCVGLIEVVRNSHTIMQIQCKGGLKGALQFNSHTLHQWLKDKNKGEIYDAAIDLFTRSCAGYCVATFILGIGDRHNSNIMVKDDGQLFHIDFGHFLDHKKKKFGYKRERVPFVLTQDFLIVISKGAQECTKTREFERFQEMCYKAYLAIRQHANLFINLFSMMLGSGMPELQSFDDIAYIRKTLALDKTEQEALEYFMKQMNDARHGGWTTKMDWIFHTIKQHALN
UniProt P27986, whole entry partner: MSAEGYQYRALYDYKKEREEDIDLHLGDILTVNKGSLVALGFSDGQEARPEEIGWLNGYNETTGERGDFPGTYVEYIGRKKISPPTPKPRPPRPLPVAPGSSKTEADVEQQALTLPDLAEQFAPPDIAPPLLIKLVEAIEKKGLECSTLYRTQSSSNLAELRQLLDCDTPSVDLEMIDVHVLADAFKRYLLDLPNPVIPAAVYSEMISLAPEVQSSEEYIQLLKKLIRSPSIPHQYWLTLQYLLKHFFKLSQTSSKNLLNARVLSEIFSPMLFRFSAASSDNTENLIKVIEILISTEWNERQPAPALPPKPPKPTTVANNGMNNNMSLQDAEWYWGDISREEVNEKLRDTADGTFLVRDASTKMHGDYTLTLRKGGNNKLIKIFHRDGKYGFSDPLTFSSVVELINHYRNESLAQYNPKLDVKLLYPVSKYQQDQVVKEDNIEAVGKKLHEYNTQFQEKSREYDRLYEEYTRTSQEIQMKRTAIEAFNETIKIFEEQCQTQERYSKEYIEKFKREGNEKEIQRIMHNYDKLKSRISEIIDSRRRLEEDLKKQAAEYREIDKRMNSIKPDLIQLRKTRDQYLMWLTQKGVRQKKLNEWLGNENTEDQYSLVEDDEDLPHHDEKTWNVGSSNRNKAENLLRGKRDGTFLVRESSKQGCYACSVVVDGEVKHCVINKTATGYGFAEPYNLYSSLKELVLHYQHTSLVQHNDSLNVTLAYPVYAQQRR

Where two headings read alike, the source gives them in different places.

The values below come from US20260132129A1.

The test addresses PI3Kα H1047R (T47D cells) (Homo sapiens, UniProt P42336, H1047R). Briefly: PI3Kα cellular assay: pAKT HTRF in T47D cells after EGF stimulation. It is filed as cell-based. Particulars: for IC50: read-out: T47D pAKT S473 HTRF IC50 (H1047R): Average IC50, T47D cells (PI3Kα H1047R), pAKT S473 HTRF.
The mark [1] stands for this setting: selectivity of T47D (H1047R) over SKBR3 (WT) pAKT IC50.
The mark [2] stands for this setting: selectivity T47D (H1047R) over SKBR3 (WT), pAKT HTRF.
Where [3] appears, read: 1 hr compound, 20 ng/ml EGF 10 min.

Take `Cc1cc([C@H](C)Nc2ccccc2S(N)(=O)=O)c2nc(-c3ccc4c(c3)c(C)cn4C3CC3)c(C)c(=O)n2c1`: the concentration for half-maximal inhibition (IC50) (EGF stimulation) fell in the range of 100 to 500 nM. Under setting [1], the “T47D pAKT S473 HTRF IC50 (H1047R): T47D (H1047R) selectivity over SKBR3 (WT)” value is “A (A denotes >20-fold)”.
Turning to `Cc1cc(C(C)Nc2ccccc2C(=O)O)c2nc(OC3CCOCC3)c(C)c(=O)n2c1` (stereo not shown), for the setting “EGF stimulation”, the IC50 is below 100 nM. In addition, the “T47D pAKT S473 HTRF IC50 (H1047R): T47D (H1047R) selectivity over SKBR3 (WT)” value under setting [2] is “A (A denotes >20-fold)”.
In the case of `Cc1cc([C@@H](C)Nc2ccccc2C(=O)O)c2nc(-c3ccc4c(n3)c(C)nn4C)cc(=O)n2c1`, the IC50 (EGF stimulation) is above 2000 nM. Under setting [1], the “T47D pAKT S473 HTRF IC50 (H1047R): T47D (H1047R) selectivity over SKBR3 (WT)” value is “C (C denotes ≤5-fold)”.
Consider `Cc1cc([C@@H](C)Nc2ccccc2C(=O)O)c2nc(-c3cnc(C)c(Cl)c3)c(C3CC3)c(=O)n2c1`, for which the IC50 (EGF stimulation) is below 100 nM. For the same compound, the “T47D pAKT S473 HTRF IC50 (H1047R): T47D (H1047R) selectivity over SKBR3 (WT)” value under setting [2] was “A (A denotes >20-fold)”.
For `Cc1cc([C@@H](C)Nc2ccccc2C(=O)O)c2nc(-c3ccc4c(c3)c(C#N)nn4C)c(C)c(=O)n2c1`, in that order: below 100 nM and “A (A denotes >20-fold)”.
In the case of `Cc1cc([C@@H](C)Nc2ccccc2C(=O)O)c2nc(-c3cnc(C)c(C(F)(F)F)c3)c(C)c(=O)n2c1`, the IC50 (EGF stimulation) is below 100 nM. Under setting [2], the “T47D pAKT S473 HTRF IC50 (H1047R): T47D (H1047R) selectivity over SKBR3 (WT)” value is reported as “A (A denotes >20-fold)”.
For `Cc1cc([C@H](C)Nc2c(C(=O)O)cnn2C)c2nc(N3CCOCC3)cc(=O)n2c1`, under setting [3], the half-maximal inhibitory concentration (IC50) was above 2000 nM. The “T47D pAKT S473 HTRF IC50 (H1047R): T47D (H1047R) selectivity over SKBR3 (WT)” value under setting [2] is listed as “C (C denotes ≤5-fold)”.
Take `Cc1cc([C@H](C)Nc2ccccc2-c2ccnnc2)c2nc(-c3cnc(C)c(Cl)c3)c(C)c(=O)n2c1`: where the note is “EGF stimulation”, the half-maximal inhibitory concentration (IC50) is 100 to 500 nM. Moreover, the “T47D pAKT S473 HTRF IC50 (H1047R): T47D (H1047R) selectivity over SKBR3 (WT)” value under setting [2] was “A (A denotes >20-fold)”.
For `Cc1cc([C@@H](C)Nc2ccccc2C(=O)O)c2nc(-c3ccnc(C4CC4)n3)c(C)c(=O)n2c1`, in that order: below 100 nM and “A (A denotes >20-fold)”.
With `Cc1cc([C@H](C)Nc2ccccc2C(=O)O)c2nc(-c3ccc4c(c3)c(N)nn4C3CC3)cc(=O)n2c1`, the IC50 (EGF stimulation) is above 2000 nM. Also, the “T47D pAKT S473 HTRF IC50 (H1047R): T47D (H1047R) selectivity over SKBR3 (WT)” value under setting [1] is listed as “C (C denotes ≤5-fold)”.
With `Cc1cc(C(C)Nc2cccc(CC(=O)O)c2)c2nc(N3CCOCC3)cc(=O)n2c1` (stereo not shown), the IC50 under setting [3] is above 2000 nM. Moreover, under setting [2], the “T47D pAKT S473 HTRF IC50 (H1047R): T47D (H1047R) selectivity over SKBR3 (WT)” value is given as “C (C denotes ≤5-fold)”.
Turning to `Cc1nn(C)c2ccc(-c3cc(=O)n4cc(Cl)cc([C@H](C)Nc5ccccc5C(=O)O)c4n3)cc12`, the concentration for half-maximal inhibition (IC50) (EGF stimulation) was below 100 nM. Under setting [1], the “T47D pAKT S473 HTRF IC50 (H1047R): T47D (H1047R) selectivity over SKBR3 (WT)” value is “A (A denotes >20-fold)”.
As to `Cc1cc(C(C)Nc2ccccc2C(=O)O)c2nc(N3CC4(COC4)C3)cc(=O)n2c1` (stereo not shown), under setting [3], the IC50 is above 2000 nM. Also, under setting [2], the “T47D pAKT S473 HTRF IC50 (H1047R): T47D (H1047R) selectivity over SKBR3 (WT)” value is recorded as “C (C denotes ≤5-fold)”.
For `Cc1cc([C@@H](C)Nc2ccccc2C(=O)O)c2nc(N3CCO[C@H](C)C3)cc(=O)n2c1`, in that order: above 2000 nM and “C (C denotes ≤5-fold)”.
For `Cc1cc(C(C)Nc2cccc3[nH]c(=O)oc23)c2nc(N3CCOCC3)cc(=O)n2c1` (stereo not shown), in that order: above 2000 nM and “C (C denotes ≤5-fold)”.
In the case of `Cc1cc([C@@H](C)Nc2ccccc2C(N)=O)c2nc(-c3cccnc3)c(C)c(=O)n2c1`, under “EGF stimulation”, the IC50 was below 100 nM. The “T47D pAKT S473 HTRF IC50 (H1047R): T47D (H1047R) selectivity over SKBR3 (WT)” value under setting [2] is listed as “A (A denotes >20-fold)”.
For `Cc1cc([C@H](C)Nc2ccccc2C(=O)O)c2nc(-c3ccc(C4CC4)nc3)c(C)c(=O)n2c1`, the IC50 (EGF stimulation) is 500 to 2000 nM.
As for `Cc1cc(C(C)Nc2ccccc2C(=O)O)c2nc(N3CCC(C(N)=O)CC3)cc(=O)n2c1` (stereo not shown), the IC50 under setting [3] was above 2000 nM. Besides, under setting [2], the “T47D pAKT S473 HTRF IC50 (H1047R): T47D (H1047R) selectivity over SKBR3 (WT)” value is given as “C (C denotes ≤5-fold)”.
Consider `Cc1cc([C@@H](C)Nc2ccccc2C(N)=O)c2nc(-c3cccc(C(F)F)c3)c(C)c(=O)n2c1`, for which the IC50 (EGF stimulation) was in the range of 100 to 500 nM. Besides, the “T47D pAKT S473 HTRF IC50 (H1047R): T47D (H1047R) selectivity over SKBR3 (WT)” value under setting [2] is “A (A denotes >20-fold)”.
Turning to `Cc1cc(C(C)Nc2ccccc2C(=O)O)c2nc(Nc3cc(C)cn4c(=O)[nH]nc34)cc(=O)n2c1` (stereo not shown), under “EGF stimulation”, the IC50 is above 2000 nM. For the same compound, the “T47D pAKT S473 HTRF IC50 (H1047R): T47D (H1047R) selectivity over SKBR3 (WT)” value under setting [1] is given as “C (C denotes ≤5-fold)”.
With `Cc1cc([C@H](C)Nc2ccccc2S(N)(=O)=O)c2nc(-c3cnc(C)c(Cl)c3)c(C)c(=O)n2c1`, where the note is “EGF stimulation”, the IC50 is 100 to 500 nM. The “T47D pAKT S473 HTRF IC50 (H1047R): T47D (H1047R) selectivity over SKBR3 (WT)” value under setting [2] is on record as “A (A denotes >20-fold)”.
For the compound `Cc1cc(C(C)Nc2ccccc2C(=O)O)c2nc(-c3ccc(F)cc3)c(C#N)c(=O)n2c1` (stereo not shown) [Compound 1260], the IC50 (EGF stimulation) is below 100 nM. In addition, under setting [1], the “T47D pAKT S473 HTRF IC50 (H1047R): T47D (H1047R) selectivity over SKBR3 (WT)” value is “A (A denotes >20-fold)”.
